Our source for the IC50 values is publication PMC6658998, “Pharmacological characterization of the seven human NOX isoforms and their inhibitors” (Redox Biology, 2019).

Amino acid sequences for entries named in this document (tags omitted). Residues count along the entry.
UniProt Q9NRD8, 26-1548: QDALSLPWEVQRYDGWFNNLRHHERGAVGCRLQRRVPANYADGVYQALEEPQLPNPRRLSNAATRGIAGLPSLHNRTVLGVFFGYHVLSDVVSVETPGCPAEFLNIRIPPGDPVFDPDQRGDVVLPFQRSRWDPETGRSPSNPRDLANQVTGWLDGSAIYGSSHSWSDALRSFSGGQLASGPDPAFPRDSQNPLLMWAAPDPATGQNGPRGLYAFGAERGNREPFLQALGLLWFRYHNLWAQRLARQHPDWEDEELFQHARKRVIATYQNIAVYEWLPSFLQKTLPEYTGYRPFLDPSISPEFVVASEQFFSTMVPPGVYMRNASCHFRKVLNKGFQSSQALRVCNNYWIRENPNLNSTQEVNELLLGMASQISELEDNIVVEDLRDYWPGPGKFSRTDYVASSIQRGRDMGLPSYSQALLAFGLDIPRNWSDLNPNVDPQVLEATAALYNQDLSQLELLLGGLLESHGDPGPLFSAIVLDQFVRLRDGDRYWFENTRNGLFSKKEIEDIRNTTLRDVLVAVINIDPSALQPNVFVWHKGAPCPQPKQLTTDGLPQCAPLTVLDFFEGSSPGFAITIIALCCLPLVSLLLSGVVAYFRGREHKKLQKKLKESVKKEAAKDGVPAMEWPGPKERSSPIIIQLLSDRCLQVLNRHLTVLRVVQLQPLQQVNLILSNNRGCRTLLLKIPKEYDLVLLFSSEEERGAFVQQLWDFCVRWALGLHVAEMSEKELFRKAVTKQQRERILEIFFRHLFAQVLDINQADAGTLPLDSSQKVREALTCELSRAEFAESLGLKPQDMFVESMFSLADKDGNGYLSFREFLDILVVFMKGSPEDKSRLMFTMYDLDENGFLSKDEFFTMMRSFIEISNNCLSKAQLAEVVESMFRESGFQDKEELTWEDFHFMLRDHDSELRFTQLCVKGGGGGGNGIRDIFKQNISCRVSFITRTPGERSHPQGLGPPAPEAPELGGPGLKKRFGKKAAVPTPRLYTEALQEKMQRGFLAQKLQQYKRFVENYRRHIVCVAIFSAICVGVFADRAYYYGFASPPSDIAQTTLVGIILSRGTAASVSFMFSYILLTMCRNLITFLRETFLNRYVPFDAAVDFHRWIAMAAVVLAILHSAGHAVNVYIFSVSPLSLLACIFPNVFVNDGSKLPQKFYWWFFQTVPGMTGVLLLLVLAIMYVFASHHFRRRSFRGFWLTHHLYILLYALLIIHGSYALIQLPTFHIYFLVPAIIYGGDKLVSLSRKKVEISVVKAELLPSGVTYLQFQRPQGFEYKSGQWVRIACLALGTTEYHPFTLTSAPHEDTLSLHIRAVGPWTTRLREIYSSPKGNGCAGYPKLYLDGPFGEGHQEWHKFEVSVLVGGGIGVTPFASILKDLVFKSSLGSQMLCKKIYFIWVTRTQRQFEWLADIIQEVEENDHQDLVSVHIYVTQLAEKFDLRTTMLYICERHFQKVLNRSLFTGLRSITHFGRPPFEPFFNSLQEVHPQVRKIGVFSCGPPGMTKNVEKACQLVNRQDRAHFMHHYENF

In assay [1] the target is T1, human NOX1 (Homo sapiens, UniProt Q9Y5S8).
T1 construct: expressed in transfected cells; host or cells: CHO
T1 sequence (Q9Y5S8 1-564): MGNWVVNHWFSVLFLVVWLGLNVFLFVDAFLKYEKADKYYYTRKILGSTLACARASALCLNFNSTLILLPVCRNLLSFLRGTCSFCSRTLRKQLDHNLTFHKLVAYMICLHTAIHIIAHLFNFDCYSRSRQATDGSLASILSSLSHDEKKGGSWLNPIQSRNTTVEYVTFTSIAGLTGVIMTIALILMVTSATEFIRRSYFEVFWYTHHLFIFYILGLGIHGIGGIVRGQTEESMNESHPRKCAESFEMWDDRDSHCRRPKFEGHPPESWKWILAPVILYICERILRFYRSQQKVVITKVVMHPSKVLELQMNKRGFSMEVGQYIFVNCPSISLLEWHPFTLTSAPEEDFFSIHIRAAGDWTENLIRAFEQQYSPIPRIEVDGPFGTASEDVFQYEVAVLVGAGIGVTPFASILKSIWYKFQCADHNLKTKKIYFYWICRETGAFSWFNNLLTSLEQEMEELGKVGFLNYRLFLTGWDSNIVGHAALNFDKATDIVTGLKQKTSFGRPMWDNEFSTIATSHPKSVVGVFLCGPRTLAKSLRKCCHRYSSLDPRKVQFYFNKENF
T1 sequence (P13498 1-195 partner): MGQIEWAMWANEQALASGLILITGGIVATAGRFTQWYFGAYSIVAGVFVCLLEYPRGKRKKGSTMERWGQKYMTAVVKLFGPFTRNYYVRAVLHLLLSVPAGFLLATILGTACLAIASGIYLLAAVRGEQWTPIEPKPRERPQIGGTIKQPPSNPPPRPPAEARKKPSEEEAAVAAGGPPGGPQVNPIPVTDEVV
As to the kind of experiment: WST-1 O2•- detection in NOX1-expressing CHO cells. Format: cell-based. Background: Formazan colour is commonly taken as a measure of viable cells.

For assay [2], the target named is T2, human NOX4 (Homo sapiens, UniProt Q9NPH5).
T2 sequence (Q9NPH5 1-578): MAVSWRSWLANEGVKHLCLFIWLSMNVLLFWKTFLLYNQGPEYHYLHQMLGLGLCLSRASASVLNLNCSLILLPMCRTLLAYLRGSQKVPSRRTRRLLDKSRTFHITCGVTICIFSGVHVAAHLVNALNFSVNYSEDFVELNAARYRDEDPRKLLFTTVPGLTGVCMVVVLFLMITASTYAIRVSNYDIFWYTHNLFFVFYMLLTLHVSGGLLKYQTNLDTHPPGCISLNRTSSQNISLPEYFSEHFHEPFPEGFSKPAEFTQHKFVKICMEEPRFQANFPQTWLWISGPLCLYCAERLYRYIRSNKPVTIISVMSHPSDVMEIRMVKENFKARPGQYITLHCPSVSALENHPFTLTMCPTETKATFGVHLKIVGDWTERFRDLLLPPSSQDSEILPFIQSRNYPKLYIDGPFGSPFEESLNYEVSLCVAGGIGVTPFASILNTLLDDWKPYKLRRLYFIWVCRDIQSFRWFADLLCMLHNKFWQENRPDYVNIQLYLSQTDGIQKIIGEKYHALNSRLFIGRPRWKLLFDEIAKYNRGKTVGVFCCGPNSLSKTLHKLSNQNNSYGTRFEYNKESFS
T2 sequence (P13498 1-195 partner): T1 sequence (P13498 1-195 partner)
As to the kind of experiment: WST-1 O2•- detection in tetracycline-induced NOX4 HEK293 T-REx cells. Format: cell-based.

A further assay deals with T3, DUOX2 (Homo sapiens, UniProt Q9NRD8).
T3 construct: expressed in transfected cells; host or cells: HEK293, selected with G418 and zeocin
The experiment in a line: Amplex Red/HRP H2O2 detection in DUOX2-expressing HEK293 cells. Format: cell-based.

Assay [3] addresses T2, human NOX4. As to the kind of experiment: Amplex Red/HRP H2O2 detection in tetracycline-induced NOX4 HEK293 T-REx cells.
Assay [4] addresses T1, human NOX1. As to the kind of experiment: Amplex Red/HRP H2O2 detection in NOX1-expressing CHO cells. Format: cell-based.

As a reminder, the IC50 is the concentration that inhibits the measured activity by half.

For the compound `c1ccc2c(c1)[I+]c1ccccc1-2` [DPI, diphenylene iodonium chloride], the IC50 on human NOX1 [1] is 400 nM; against human NOX4 [2] it was 400 nM; at DUOX2, 1700 nM; against human NOX4 [3], 2700 nM; at human NOX1 [4], 900 nM.
